Measurements taken from PubChem BioAssay AID651965 (National Center for Advancing Translational Sciences (NCATS), 2013).
The entries are a selection whose mix differs from that of the whole data set. Records with an inconclusive call do not appear. Activity calls are given as the source filed them. Calls come from the whole dose curve; as a rule, active = well fitted falling curve with a large enough effect; inconclusive = small, poorly fitted or top-dose-only effect; inactive = no such curve, though single readings can be large or run the other way.

Protein sequences, listed by entry. Tags and fused reporters are not part of them. Lines headed by an entry give the natural chain unless they say otherwise; changes in a name come on top.
UniProt P80244: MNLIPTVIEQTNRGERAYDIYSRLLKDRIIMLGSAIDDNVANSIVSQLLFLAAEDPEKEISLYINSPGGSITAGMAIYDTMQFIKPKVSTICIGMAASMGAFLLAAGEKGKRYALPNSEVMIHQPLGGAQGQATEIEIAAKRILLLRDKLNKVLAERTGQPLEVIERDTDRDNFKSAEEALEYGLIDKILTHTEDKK

target: ATP-dependent Clp protease proteolytic subunit (Bacillus subtilis (strain 168)) (UniProt P80244); experiment: qHTS Assay for Activators of ClpP; note: the source files actives as falling curves though it sought activators and does not explain the sign; nearly all actives have a fitted effect of over 65% in size; details: purified B. subtilis ClpP, FRET peptide cleavage, 20 min
Description: The Clp protease proteolytic subunit (ClpP) is the core unit of the Clp complex belonging to the peptidase family S14 that hydrolyzes protein into small peptides in the presence of ATP and magnesium. It is ubiquitously expressed and is the major protease in bacteria. […] Unlike common antibiotics that simply interfere with the essential enzyme activity, ADEP binding activates the ClpP core in the absence of the regulatory Clp-ATPases leading to uncontrolled proteolysis and eventually cell death. Activators binding to the docking site on ClpP can also block formation of the ClpXP and ClpA/C-P holoenzyme complexes interfering with the normal biological functions of ClpP and thus have the potential to become new anti-microbials.
To identify activators of ClpP, a FRET based quenching reversal assay was developed using a purified B. subtilis ClpP and a decapeptide substrate (FRET-FV). The FRET-FV is tagged with a fluorescent molecule amino benzoic acid (donor) at the N-terminus and a nitrotyrosine quencher (acceptor) at the C-terminus. FRET-FV cleaves upon activation of ClpP with ADEP treatement and reverses the quenching effect of the nitrotyrosine causing an increase in fluorescence emission signal at 430nm. This assay was used to screen the Molecular Libraries Small Molecule Repository (MLSMR).
NIH Molecular Libraries Probe Production Centers Network [MLPCN]
NIH Chemical Genomics Center [NCGC]
Assay Submitter (PI): Michael Maurizi, National Cancer Institute
Two and a half microL/well of purified enzyme solution (final concentrations 10 microg/mL B. subtilis ClpP in 100 mM Tris/HCl pH8, 100 mM KCl, 0.05% low protease BSA, 2.5% glycerol, 0.01% Tween-20 buffer) was dispensed into 1536-well assay plates (Greiner, black solid, medium-binding plates) with Aurora Discovery BioRAPTR Flying Reagent Dispenser (FRD, Beckton-Dickenson). Compound solution (23 nL) was transferred to the assay plate using Kalypsys pin tool equipped with a 1536-pin tool. […] FRET signals at time 0 and after 20 min room temperature incubation were obtained using the PerkinElmer Envision plate reader with 320nm excitation and 430nm emission filters. Delta FRET value (Time 20 - Time 0) was calculated and normalized to the delta FRET value of positive control ADEP (5.8 microM final concentration) and negative control DMSO and no enzyme wells.

Potency, active:
Cc1ccc(S(=O)(=O)Nc2ccc(-c3nc4ccc(C)cc4s3)cc2)cc1 4.47 µM, COC(=O)Cc1c[nH]c2cccc(OCC(O)CN(Cc3ccccc3)C(C)C)c12 (centres undefined) 28.2 µM, CC[n+]1c(/C=C/N(C)c2ccccc2)oc2ccccc21 22.4 µM, CC1=NC(C)(C)Cc2ccccc21 28.2 µM
